Data: patent US20230203052A1, “ACYCLIC CUCURBITURILS, METHODS OF MAKING SAME, AND USES THEREOF” (University of Maryland, College Park, priority 2020, published 2023)

Assay: ITC binding of guests to host 1 (direct or competitive titration)
Settings: pH 7.4

With `CN1CC[C@]23c4c5ccc(O)c4O[C@H]2C(=O)CC[C@H]3[C@H]1C5` [Hydromorphone] the “Ka of host·guest complex of 1” value was 2.54 × 10^6; −15.4 M^−1.
